Assay results: patent US8586596B2, “Compounds as cannabinoid receptor ligands” (AbbVie Inc., priority 2010, dated 2013)
pKi: −log10 of the molar value.

The chains behind the UniProt entries cited, without tags or fusion partners. Where a name states a change or a piece, a line headed by the entry shows the natural chain unless it says otherwise.
UniProt Q9QZN9: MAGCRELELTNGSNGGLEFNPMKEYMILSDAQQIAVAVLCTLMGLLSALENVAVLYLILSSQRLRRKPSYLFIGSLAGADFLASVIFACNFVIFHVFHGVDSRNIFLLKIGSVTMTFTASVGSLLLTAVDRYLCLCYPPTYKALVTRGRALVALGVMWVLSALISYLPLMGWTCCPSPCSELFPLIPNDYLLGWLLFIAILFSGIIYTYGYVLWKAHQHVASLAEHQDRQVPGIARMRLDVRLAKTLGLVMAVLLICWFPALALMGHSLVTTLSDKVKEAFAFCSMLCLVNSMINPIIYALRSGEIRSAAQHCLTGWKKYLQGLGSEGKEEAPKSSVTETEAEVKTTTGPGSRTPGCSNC
UniProt P34972, whole entry, looked up: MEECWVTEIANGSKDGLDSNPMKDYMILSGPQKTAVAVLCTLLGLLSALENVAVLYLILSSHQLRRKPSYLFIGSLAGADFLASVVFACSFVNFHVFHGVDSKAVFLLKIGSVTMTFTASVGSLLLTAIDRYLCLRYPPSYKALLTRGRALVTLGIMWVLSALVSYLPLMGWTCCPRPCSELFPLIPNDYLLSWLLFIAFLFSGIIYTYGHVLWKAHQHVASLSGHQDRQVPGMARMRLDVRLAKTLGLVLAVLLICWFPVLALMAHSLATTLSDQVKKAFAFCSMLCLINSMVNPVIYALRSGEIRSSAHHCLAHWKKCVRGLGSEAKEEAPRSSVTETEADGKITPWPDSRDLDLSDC

Tests used:
rat CB2 receptors = rat CB2 receptors (Rattus norvegicus, UniProt Q9QZN9); assay: CB2 radioligand binding assay ([3H]CP 55,940 competition), rat; details: read-out: rat CB2 binding (Ki); membranes of HEK293 cells stably expressing rat CB2; 0.5 nM [3H]CP 55,940
human CB2 receptors = human CB2 receptors (Homo sapiens, UniProt P34972); assay: CB2 radioligand binding assay ([3H]CP 55,940 competition), human; details: read-out: human CB2 binding (Ki); membranes of HEK293 cells stably expressing human CB2; 0.5 nM [3H]CP 55,940

CCCCn1/c(=N/C(=O)c2cc(C(F)(F)F)ccc2OC[C@H](C)O)sc2c(=O)n(C)ncc21
pKi (rat CB2 receptors): 8.82
pKi (human CB2 receptors): 8.21
